Assay results published in patent US20130216590A1, “TOPICAL ANTIVIRAL FORMULATIONS FOR PREVENTION OF TRANSMISSION OF HSV-2” (priority 2010, published 2013).

Tested on: HSV-1 strain F (HSV-1F)
Assay: Human ex vivo tonsillar tissue, HSV DNA release by real-time PCR
Assay type: cell-based
Conditions: 66 μg/ml

For `C[C@H](Cn1cnc2c(N)ncnc21)OCP(=O)(O)O` [tenofovir, (R)-9-(2-phosphonylmethoxypropyl)adenine], the “reduction of replication compared to infected donor matched-untreated tissue” value (HSV-1F) was 99±0.1% and the “release of viral DNA in culture medium” value (day 9 post infection, IQR 3.9-4.3, untreated 8) was 4 log10 DNA copies/ml.
